Earlier results, collected in patent US7977317B2, “Compositions and methods for modulating blood-brain barrier transport” (Raptor Pharmaceutical Inc., priority 2001, dated 2011).

Target: LDL-R (Homo sapiens, UniProt P01130)
Conditions: Tables 1-3; cited from earlier work

Substance: ApoE: Apolipoprotein E
- Binding to LDL-R: Yes
